{
  "sequences": {"note": "Sequences of proteins named here, by UniProt entry; tags and fusion partners are left off. A change or cut given only in a name is not applied to a line headed by its entry. Residues count along the entry.", "UniProt Q12931, 60-704": "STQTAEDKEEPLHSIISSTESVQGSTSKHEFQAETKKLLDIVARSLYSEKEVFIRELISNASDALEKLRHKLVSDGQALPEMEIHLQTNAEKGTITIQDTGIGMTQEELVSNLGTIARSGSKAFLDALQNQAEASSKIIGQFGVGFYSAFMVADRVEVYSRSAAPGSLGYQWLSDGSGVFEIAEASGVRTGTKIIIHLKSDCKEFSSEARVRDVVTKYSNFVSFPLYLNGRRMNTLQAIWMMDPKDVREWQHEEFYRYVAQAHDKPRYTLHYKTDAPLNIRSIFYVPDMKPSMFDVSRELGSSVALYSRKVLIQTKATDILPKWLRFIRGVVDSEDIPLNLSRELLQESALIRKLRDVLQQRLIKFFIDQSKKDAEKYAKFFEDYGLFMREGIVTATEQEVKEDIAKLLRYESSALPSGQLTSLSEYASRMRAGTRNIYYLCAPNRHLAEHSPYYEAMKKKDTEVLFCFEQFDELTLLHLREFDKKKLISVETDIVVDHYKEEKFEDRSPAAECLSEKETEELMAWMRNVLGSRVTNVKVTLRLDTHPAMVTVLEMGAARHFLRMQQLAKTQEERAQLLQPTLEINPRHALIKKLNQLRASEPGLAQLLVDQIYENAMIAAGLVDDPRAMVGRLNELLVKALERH", "UniProt P22102": "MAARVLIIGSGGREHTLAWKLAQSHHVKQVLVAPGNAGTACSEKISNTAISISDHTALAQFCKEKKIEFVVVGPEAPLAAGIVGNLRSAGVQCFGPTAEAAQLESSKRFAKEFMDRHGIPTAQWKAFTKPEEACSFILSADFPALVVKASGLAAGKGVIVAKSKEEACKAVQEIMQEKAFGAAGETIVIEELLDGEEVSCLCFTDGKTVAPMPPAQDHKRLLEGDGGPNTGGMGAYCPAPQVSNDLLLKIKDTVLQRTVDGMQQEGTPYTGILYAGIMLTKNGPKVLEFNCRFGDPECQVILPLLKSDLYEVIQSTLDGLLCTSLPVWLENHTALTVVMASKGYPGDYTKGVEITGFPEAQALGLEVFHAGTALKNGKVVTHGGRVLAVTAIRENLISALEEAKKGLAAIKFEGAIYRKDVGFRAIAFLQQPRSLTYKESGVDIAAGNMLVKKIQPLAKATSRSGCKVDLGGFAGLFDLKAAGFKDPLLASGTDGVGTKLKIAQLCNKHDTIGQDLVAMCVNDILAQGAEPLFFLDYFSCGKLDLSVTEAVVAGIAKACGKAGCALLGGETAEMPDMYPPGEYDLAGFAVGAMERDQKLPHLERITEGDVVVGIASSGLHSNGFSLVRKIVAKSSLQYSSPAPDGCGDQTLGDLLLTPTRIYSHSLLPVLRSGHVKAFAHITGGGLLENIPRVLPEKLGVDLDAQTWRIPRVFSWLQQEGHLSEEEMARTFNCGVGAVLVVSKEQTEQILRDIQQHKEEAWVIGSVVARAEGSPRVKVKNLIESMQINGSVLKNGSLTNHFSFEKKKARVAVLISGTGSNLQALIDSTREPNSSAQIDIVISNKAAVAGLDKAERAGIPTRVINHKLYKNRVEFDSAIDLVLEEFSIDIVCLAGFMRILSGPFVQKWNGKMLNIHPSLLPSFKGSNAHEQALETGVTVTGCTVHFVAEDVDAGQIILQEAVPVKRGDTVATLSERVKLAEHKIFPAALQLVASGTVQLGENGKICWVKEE"},
  "source": "patent US20240410898A1",
  "about": "“METHOD FOR DETECTING PROTEIN HAVING CHANGES IN ENERGY STATE, OR AFFINITY OF LIGAND TO PROTEIN” (DALIAN INSTITUTE OF CHEMICAL PHYSICS, CHINESE ACADEMY OF …, priority 2022, published 2024)",
  "key": {"[1]": {"biological_target": "TRAP1 (Homo sapiens, UniProt Q12931)", "conditions": "100 μM"}, "[2]": {"biological_target": "GART (Homo sapiens, UniProt P22102)", "conditions": "10 μM MTX, HeLa cell lysate"}, "[3]": {"system": "proteins in HeLa cell lysate", "conditions": "2 mM αKG"}},
  "data": [
    {"compound": "CC(C)c1cc(-c2n[nH]c(=O)n2-c2ccc3c(ccn3C)c2)c(O)cc1O", "note": "[ganetespib]", "values": [
      {"measurement": "identification of TRAP1 as binding protein", "setting": "[1]", "value": "specifically identified as a binding protein of ganetespib"}
    ]},
    {"compound": "CN(Cc1cnc2nc(N)nc(N)c2n1)c1ccc(C(=O)N[C@@H](CCC(=O)O)C(=O)O)cc1", "note": "[MTX, methotrexate]", "values": [
      {"measurement": "energy state change of GART", "setting": "[2]", "value": "shows energy state changes exclusively through PELSA"}
    ]},
    {"compound": "alpha-ketoglutarate [αKG]", "values": [
      {"measurement": "number of stabilized proteins that are known αKG target proteins", "setting": "[3]", "value": 30}
    ]}
  ]
}
